Earlier results as cited in US20200306255A1, “COMPOSITIONS AND METHODS FOR TREATING NIEMANN PICK C DISEASE” (AI Therapeutics, Inc., priority 2016, published 2020).
pIC50: −log10 of the molar value.

Test system: adipocytes
Conditions: read-out: inhibition of basal and insulin-activated 2-deoxyglucose uptake, IC50; cited from earlier work

Question: With `Nc1ccc(C(=O)Nc2cccc(-c3nc(N4CCOCC4)c4oc5ncccc5c4n3)c2)cn1` [YM-201636, 6-amino-N-(3-(4-morpholinopyrido[3′,2′:4,5]furo[3,2-d]pyrimidin-2-yl)phenyl)nicotinamide] as the molecule, how does the pIC50 read?
Answer: 7.27
